We go through one compound from patent US10014546B2 (priority 2012, dated 2018).

The conditions of the series: pH 10.

As to `CC1[O][Ti-2]23([O]CC(=O)[O]2)([O]C1=O)[O]C(=O)C(C)[O]3` (stereo not shown), the “E1/2, V vs. RHE” value is −0.50 V vs. RHE.
